AlphaSeq binding of Ab-14 heavy chain variants to a spike HR2 peptide

Target peptide (SARS-CoV-2 spike, HR2 region): PDVDLGDISGINAS

Each scFv is VH, a 15-residue (Gly4Ser)3 linker, VL, as in the parent Ab-14, and differs from it in the CDRs of the heavy chain only.
VH: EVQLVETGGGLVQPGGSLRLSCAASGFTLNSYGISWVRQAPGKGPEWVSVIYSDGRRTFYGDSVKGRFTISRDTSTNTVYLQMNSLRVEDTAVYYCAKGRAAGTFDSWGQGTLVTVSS
VL: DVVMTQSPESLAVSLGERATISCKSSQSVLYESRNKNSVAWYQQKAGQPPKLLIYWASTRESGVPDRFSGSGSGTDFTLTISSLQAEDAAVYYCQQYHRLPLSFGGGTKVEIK

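The starting antibody came from a phage panning campaign against this peptide. Designed CDR sequences, proposed from the first random library and measured here. Several design methods are mixed in this list. In AlphaSeq, yeast of one mating type display the scFv and yeast of the other type display the target. Binding brings cells together so that they mate, and sequencing counts the barcode pairs among the diploids. Read counts were normalised to the haploid input and turned into Kd by a linear fit to BCL2-family pairs of known affinity, for each replicate. There are six technical replicates.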

The parent's heavy chain CDRs are GFTLNSYGIS, VIYSDGRRTFYGDSVK, GRAAGTFDS; each variant's own CDRs replace them letter for letter. Kd is apparent (estimated from mating counts) and averaged on the log scale over replicates with a signal. Smaller is tighter. "nd" means that the variant was in the library but no mating with the target was seen in any replicate; the authors take this as a sign of poor binding, and no number exists. As a blank, each scFv also met three strains without target: over all heavy chain designs, 1% of these pairings were detected, typically at 120 nM and seldom below 7.0 nM.

Result 13 nM (3 of 6 replicates), variant KFELNEYGIS / VIYSDGRRTFYGDSVK / GKTAGTFDS.
Result nd (0 of 6 replicates), variant GFTLNEYGIS / VIYADGRRTFYGDSVK / GKAADTFDN.
Result nd (0 of 6 replicates), variant GFDLNDYGIS / VIYSDGRRTFYGDSVK / GRAAGTFHS.
Result 140 nM (4 of 6 replicates), variant YFSLNDYGIS / VIYSDGRRTFYGDSVK / GRTAGTFDS.
Result 220 pM (6 of 6 replicates), variant GFDLNEYGIS / VIYADGRRTAYADDVK / GNVAGTFDQ.
Result 140 nM (6 of 6 replicates), variant GFPLDEYGIS / VIYADGERTHYSNDVK / GTIGGTFFQ.
Result nd (0 of 6 replicates), variant GFDLNSYGIS / VIYSDGRRTFYVDQVK / GQAAGTFDS.
Result 270 pM (6 of 6 replicates), variant GFDLNSYGIS / VIYSDGRRTFYGDSVK / GRTAGTFDD.
Result 540 pM (6 of 6 replicates), variant GFDLNEYGIS / VIYADGLRTAYSDDVK / GNVAGTFDV.
Result nd (0 of 6 replicates), variant GFTLNEYGIS / VIYSDGRRTFYTDSSK / GRFAHTFDS.
Result 2.5 nM (1 of 6 replicates), variant GFSLNMYGIS / VIYSDGRRTQYDDSVK / GRAAGTFDS.
Result 320 pM (6 of 6 replicates), variant GFGLNEYGIS / VIYSDGRRTFYTDSVK / GREAGTFDV.
Result 3.1 nM (6 of 6 replicates), variant GFTLNSYGIS / VIYSDGRRTFYSDSVK / GQVGGTFDS.
Result 400 pM (6 of 6 replicates), variant GFDLNEYGIS / VIYADGVRTAYTDSVK / GEVAGTFDT.
Result 200 nM (6 of 6 replicates), variant GFTLNSYGIS / VIYSDGRRTFYSDSVK / GMAAGTFDR.
Result nd (0 of 6 replicates), variant GFGLDEYGIS / VIYADGSRTEYVQSVK / GMTSVIKFV.
Result 18 nM (4 of 6 replicates), variant GFLLNDYGIS / VIYSDGRRTFYIDTVK / GNAAGTFDS.
Result nd (0 of 6 replicates), variant GFTLNSYGIS / VIYSDGRRTFYGDSVK / GTAQGTFDS.
Result nd (0 of 6 replicates), variant GKTLDEYGIS / VIYADGMRTQYIDQVK / GGIVGWNMT.
Result 360 nM (3 of 6 replicates), variant GFTLNSYGIS / VIYSDGRRTFYSDRVK / GEAAGTFDK.
Result 2.0 nM (6 of 6 replicates), variant GFDLNSYGIS / VIYSDGRRTFYHDSVK / GRAAGIFDS.
Result 54 nM (4 of 6 replicates), variant GFNLDEYGIS / VIYADGRRTFYADSVK / GENAGTFLM.
Result 12 nM (6 of 6 replicates), variant GFELNSYGIS / VIYSDGRRTFYMDSVK / GQTAGTFDA.
Result 2.3 nM (6 of 6 replicates), variant GFTLNEYGIS / VIYSDGRRTFYTDSVK / GETAGTFDS.
Result 8.6 nM (5 of 6 replicates), variant GFELNSYGIS / VIYSDGRRTFYKDSVK / GRTAGTFDQ.
Result 1.1 nM (6 of 6 replicates), variant GFDLNSYGIS / VIYSDGRRTFYTDSVK / GREAGTFDS.
Result nd (0 of 6 replicates), variant GFTLNSYGIS / VIYSDGRRTFYGDSVK / IRAAGTFDQ.
Result nd (0 of 6 replicates), variant GFTLNQSGIS / VIYSDGRRGFYSDSVK / GRAAGFFDS.
Result 88 pM (6 of 6 replicates), variant GFDLDEYGIS / VIYADGQRTAYSDSVK / GENAGTFDQ.
Result 1.4 nM (5 of 6 replicates), variant GFDLNEYGIS / VIYADGRRTQYIDSVK / GNVAGTFDL.
Result nd (0 of 6 replicates), variant GFTLNSYGIS / SIYSDGRRTFYGDSVK / NRAKGTFDW.
Result 150 nM (2 of 6 replicates), variant GEDLQEYGIS / VIYADGFRQAYSEKVK / GQHAGFLVK.
Result 140 nM (4 of 6 replicates), variant GFSLNSYGIS / VIYSDGRRTFYVDSVK / GRHAGTFDS.

Extract of 2 entries:

CDR-H1	CDR-H2	CDR-H3	Kd (apparent)	seen in
GFNLDEYGIS	VIYADGRRTFYADSVK	GENAGTFLM	54 nM	4/6
GFDLNSYGIS	VIYSDGRRTFYGDSVK	GRTAGTFDD	270 pM	6/6

The range of this assay differs from that of the first round, and the authors advise against merging the two. The parent sequence was in this pool as ten entries: three were never detected, three once, and four in most replicates, with averages from 2.2 nM to 240 nM. The authors averaged sequences with at least three values out of six and counted those with two or fewer as poor binders.

Reference: Li et al. 2023, doi:10.1038/s41467-023-39022-2. File: FLAb, binding data.